Biological target: T1, Sterol O-acyltransferase 1 (Rattus norvegicus, UniProt O70536)
T1 sequence (O70536 whole entry): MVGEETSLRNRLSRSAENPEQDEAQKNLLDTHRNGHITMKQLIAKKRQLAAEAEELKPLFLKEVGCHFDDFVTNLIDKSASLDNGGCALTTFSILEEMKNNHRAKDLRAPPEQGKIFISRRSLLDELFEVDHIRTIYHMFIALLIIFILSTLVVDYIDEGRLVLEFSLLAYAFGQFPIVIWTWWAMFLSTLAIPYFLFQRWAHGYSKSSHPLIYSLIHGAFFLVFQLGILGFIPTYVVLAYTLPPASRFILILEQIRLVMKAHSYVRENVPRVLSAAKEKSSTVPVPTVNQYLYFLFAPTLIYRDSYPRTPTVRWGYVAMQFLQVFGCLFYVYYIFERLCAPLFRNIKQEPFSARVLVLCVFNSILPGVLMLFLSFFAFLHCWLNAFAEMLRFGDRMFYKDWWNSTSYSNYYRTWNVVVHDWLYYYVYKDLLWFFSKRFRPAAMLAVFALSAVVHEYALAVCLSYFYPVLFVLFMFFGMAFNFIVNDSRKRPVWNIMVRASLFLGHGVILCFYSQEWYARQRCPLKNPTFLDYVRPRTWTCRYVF
Assay: Liver Acyl coenzyme A:cholesterol acyltransferase inhibitory activity was determined in vitro using [1-14C]oleolyl-CoA and microsomes isolated from the livers of cholesterol fed rats
Parameters: species or system Microsome

With `CCCCCCCCCCCCn1nnc(N(C(=O)Nc2c(C(C)C)cccc2C(C)C)c2ccccc2)n1` the IC50 was 0.047 µM.
